Measured values: article PMC7244497 (Scientific Reports, 2020)

The chains behind the UniProt entries cited, without tags or fusion partners.
UniProt P41143, whole entry, looked up: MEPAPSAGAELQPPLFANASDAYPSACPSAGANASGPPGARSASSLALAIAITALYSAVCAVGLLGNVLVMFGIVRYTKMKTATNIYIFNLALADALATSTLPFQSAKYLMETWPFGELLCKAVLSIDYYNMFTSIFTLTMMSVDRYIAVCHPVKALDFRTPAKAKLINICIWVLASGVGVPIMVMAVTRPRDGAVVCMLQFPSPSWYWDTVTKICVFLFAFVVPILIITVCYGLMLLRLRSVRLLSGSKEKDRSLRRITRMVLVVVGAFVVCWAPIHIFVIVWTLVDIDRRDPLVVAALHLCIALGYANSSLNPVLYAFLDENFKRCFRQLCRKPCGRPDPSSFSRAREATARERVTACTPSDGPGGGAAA

How the values were obtained:
[1] = target: T1, HA-hDOP receptor (Homo sapiens, UniProt P41143); test: Western blot of DOP receptor phosphorylation at T361 and S363 with phosphosite-specific antibodies in HEK293 cells; details: 10^-9 to 10^-5 M for 10 min at 37 °C
[2] = target: T1, HA-hDOP receptor; test: DOP receptor internalization (confocal microscopy and cell-surface ELISA) in HEK293 cells; details: 10 µM for 30 min at 37 °C
[3] = target: T1, HA-hDOP receptor; test: Fluorescence-based membrane potential assay (GIRK channel activation); type: cell-based; details: AtT-20 cells stably expressing HA-hDOP receptor

`CO[C@]12CC[C@@]3(C[C@@H]1[C@](C)(O)C(C)(C)C)[C@H]1Cc4ccc(O)c5c4[C@@]3(CCN1)[C@H]2O5` was tested, and the “Agonist-induced DOP receptor phosphorylation at T361 and S363” value [1] was “Robust phosphorylation”, the “Agonist-induced DOP receptor internalization” value [2] was “receptor internalization were detectable” and the “Emax in % of DPDPE” value ([3]; GIRK channel activation) was 56.3%. The “Emax, GIRK channel activation” value ([3]; membrane potential assay (Fig. 5 axis: RFU)) was 15.3 ± 1.50 and the EC50 ([3]; read-out: EC50, GIRK channel activation, membrane potential assay, mean ± SEM, three independent experiments) was 0.0438 µM.
